Assay results published in paper PMC7699480 (Cancers, 2020).

Biological target: the molecule itself
Experiment: electrophoresis on a bioanalyzer; purified Cys-∆N-SpyCatcher under non-reducing conditions; dimer through the added cysteine; reducing conditions gave a major 15.2 kDa (87%) peak

B1: Cys-∆N-SpyCatcher (designed binder)
chain: CDSATHIKFSKRDEDGKELAGATMELRDSSGKTISTWISDGQVKDFYLYPGKYTFVETAAPDGYEVATAITFTVNEQGQVTVNGKATKGDAHI
stoichiometry N: 2
